The record followed here is patent publication US20250381183A1, “TARGETING S100A9-ALDH1A1-RETINOIC ACID SIGNALING TO SUPPRESS BRAIN RELAPSE IN EGFR-MUTANT LUNG CANCER” (The Trustees of Columbia University in the City of New York, priority 2022, published 2025).

The subject of assay [1] is H1650-BrM cells. The assay can be described thus: H1650-BrM metastatic EGFR-mutant lung cancer mouse model, long-term osimertinib treatment. The conditions noted are these: of osimertinib-treated mice with brain relapse.
In assay [2] the test system is PC9-BrM cells. The assay can be described thus: PC9-BrM metastatic EGFR-mutant lung cancer mouse model, long-term osimertinib treatment. The conditions noted are these: continuous osimertinib treatment, bioluminescence imaging.

Molecules are shown by their SMILES.

In the case of `C=CC(=O)Nc1cc(Nc2nccc(-c3cn(C)c4ccccc34)n2)c(OC)cc1N(C)CCN(C)C` [osimertinib], the “relapsed mice that also developed lung lesions” value in assay [1] amounted to 45%. Further, the “progression of brain metastases” value in assay [2] was “gradually progressed”.
